Sampled rows, rich in hits. Any-hit rate of the full collection: about 4.2%.
ALR inh – human ALR oxidase inhibition via reduced H2O2; P55789; purified ALR, DTT oxidation, H2O2 HRP-luminol luminescence; inhibition, % (concentration not given with the values); 3.8% of 290,000 active; AID 485317;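 active = mean and each replicate at 75% or more; inconclusive = only one of the two met; inactive = neither met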;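 note: stock transfer was 7.5 nL into about 7.5 µL; 0% = neutral wells and 100% = wells with inactivated enzyme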
MC4R barr agon – agonists of human melanocortin 4 receptor (MC4R) beta-arrestin | P32245 | activation, % at 8.9 µM | AID 540308 | U2OS MC4R beta-arrestin complementation, luminescence; percent of melanotan II response, DMSO zero | 360,000 tested, 0.98% active;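 active = activation above a per-plate cutoff, the mean activation of sample wells on that plate plus 3 SD, cut at about 8% in these data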
HDAC3 inh – inhibitors of human histone deacetylase 3. inhibition, % at 8.3 µM. 320,000 tested, 0.15% active. recombinant HDAC3, fluorogenic peptide/trypsin coupled, fluorescence; in the data active = inhibition above about 26%, passing the limit was not always enough
Yeast UUG start – modulators of start codon recognition fidelity in yeast. S. cerevisiae UUG-firefly luciferase reporter, luminescence/redox ratio. activity score, % at 18.7 µM. 0.13% of 350,000 active. AID 602363;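 active = replicate mean at a twofold rise or more, about +100% in these data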;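 also: firefly luciferase made from a UUG start codon reports start codon fidelity; reporter light over untreated wells divided by growth signal over untreated wells; some hits fall short of that in this replicate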
MC4R antagonist – blocks human MC4R cAMP signaling | MC4R-expressing cells, MTII-stimulated cAMP, LANCE TR-FRET | inhibition, % at 6.5 µM | P32245 | 360,000 tested, 0.48% active;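 active = inhibition above its plate's cutoff, the mean of tested wells on that plate plus 3 SD, cut at about 29% in these data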;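 note: 0% = Melanotan II alone and 100% = Melanotan II plus saturating MCL0020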
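system = U2OS cells with stable human MC4R expression | also added = Melanotan II challenge after compound preincubation | dosing = one concentration, 6.5 µM nominal | incubation = compound 30 min, challenge 1 h, detection 1 h | measured by = TR-FRET with Eu-cAMP and labeled anti-cAMP, 671 nm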
NALP1 inh – inhibitors of NALP1 inflammasome in yeast; S. cerevisiae NALP1/ASC/caspase-1 growth, X-gal OD620, 72 h; inhibition, % at 10 µM; 280,000 tested, 0.61% active; AID 2071; in the data active = inhibition mostly above about 24%, no sharp cut-off; inactive = mostly below about 32%
* = called active by the depositor; . = not tested or not shown; ! = not active in a repeat.

structure,ALR inh,MC4R barr agon,HDAC3 inh,Yeast UUG start,MC4R antagonist,NALP1 inh
CC(=O)Nc1ccc2c(c1)nc1n2CCSC1,99*,-1,-4,-23,0,-2
COc1ccccc1C(=O)Nc1ccc2c(c1)nc1n2CCSC1,99*,1,3,-15,-5,8
Cc1ccc(C(=O)Nc2ccc3c(c2)nc2n3CCSC2)cc1,98*,-1,3,-21,-5,18
CCCCC(=O)Nc1ccc2c(c1)nc1n2CCSC1,99*,-4,-15,-23,2,5
CN1/C(=C\C=N\O)C(C)(C)c2ccccc21,-30,-2,7,8,3,4
CN(C)c1ccc(N=C/C=C2/N(C)c3ccccc3C2(C)C)cc1,.,1,.,-28,2,54*
CC12N=C3SCc4ccccc4CN3[C@H](c3ccccc3O1)[C@H]2CO[Si](C)(C)C(C)(C)C,.,.,.,-14,.,.
CCOP(=O)(OCC)C(Nc1ccc(OC)cc1)c1ccco1 (stereo not given),95*,0,-1,-5,8,-8
CC(=O)n1c2ccccc2c2nc3ccccc3nc21,-11,0,-4,-16,4,30*
CCn1c2ccccc2c2nc3ccccc3nc21,-5,3,-9,-17,-8,7
Cc1occc1C(=O)NCCc1ccc(Cl)cc1,96*,-2,-3,-1,6,-6
O=C(NCCc1ccc(O)cc1)c1ccc(Cl)cc1,79*,0,-6,-33,5,3
Cc1occc1C(=O)NC(C)CCc1ccccc1 (stereo not given),-5,-1,1,-6,13,4
Cc1occc1C(=O)NCCCCc1ccccc1,98*,0,5,-15,-4,-12
Cc1occc1C(=O)NC(C)C(C)(C)C (stereo not given),98*,2,-4,3,-9,6
Cc1occc1C(=O)NCc1ccccc1,12,0,-7,2,3,14
C[C@H](CO)N1C[C@H](C)[C@@H](CN(C)C(=O)c2ccccc2)OCCCC[C@H](C)Oc2ccc(NC(=O)C3CCCCC3)cc2C1=O,.,.,.,8,.,.
O=C(CCNC(=O)c1ccccc1Cl)NCCc1ccc(Cl)cc1,-5,0,3,-2,14,12
O=C(Cc1c(Cl)cccc1Cl)NCCc1ccc(Cl)cc1,-6,9.3*,2,-14,3,24
O=C(O)CCc1ccc(-c2ccccc2)n1-c1ccc(C(=O)O)cc1,1,0,5,-9,1,13

4 compounds from above, limited to MC4R barr agon and Yeast UUG start:
Compound	MC4R barr agon	Yeast UUG start
Cc1occc1C(=O)NC(C)C(C)(C)C (stereo not given)	2	3
Cc1occc1C(=O)NCc1ccccc1	0	2
C[C@H](CO)N1C[C@H](C)[C@@H](CN(C)C(=O)c2ccccc2)OCCCC[C@H](C)Oc2ccc(NC(=O)C3CCCCC3)cc2C1=O	.	8
O=C(CCNC(=O)c1ccccc1Cl)NCCc1ccc(Cl)cc1	0	-2

Next part:
structure,ALR inh,MC4R barr agon,HDAC3 inh,Yeast UUG start,MC4R antagonist,NALP1 inh
COc1ccc(-c2ccc(CCC(=O)O)n2-c2ccccc2OC)cc1,99*,-2,3,-7,-20,6
O=C(O)CCc1ccc(-c2ccccc2)n1NC(=O)c1sc2ccccc2c1Cl,98*,1,1,-4,-1,-3
COc1ccccc1-n1c(CCC(=O)O)ccc1-c1ccccc1,90*,-1,2,-5,5,-27
COc1ccc(-c2ccc(CCC(=O)O)n2NC(=O)c2ccc(O)cc2)cc1,98*,-2,-7,-23,3,-18
CCC(=O)N1[C@H](CN(C)C(=O)c2ccccc2F)[C@@H](c2ccccc2)[C@@H]1CO,.,.,.,-3,.,.
C[C@@H]1CCCCO[C@@H](CN(C)S(=O)(=O)c2cn(C)cn2)[C@H](C)CN([C@H](C)CO)C(=O)c2cc(NS(=O)(=O)c3ccc(F)cc3)ccc2O1,.,.,.,7,.,.
CCOC(=O)N1CCN(S(=O)(=O)c2ccc(C(=O)NNc3nc4ccc(Cl)cc4s3)cc2)CC1,98*,-1,.,-33,15,18
CCOC(=O)N1CCN(S(=O)(=O)c2ccc(C(=O)NNc3nc4cc(C)cc(C)c4s3)cc2)CC1,2,1,-2,-28,13,28
CCn1c(-c2ccc(F)cc2)n[nH]c1=S,-1,1,8,-2,12,-18
Cc1[nH]c2ccc(-c3n[nH]c(=S)n3C)cc2c1C,98*,-3,-2,-21,-3,-41

Brought forward from above: 2 entries; new compounds follow.
structure,ALR inh,MC4R barr agon,HDAC3 inh,Yeast UUG start,MC4R antagonist,NALP1 inh
CCn1c(-c2ccc(F)cc2)n[nH]c1=S,-1,1,8,-2,12,-18
Cc1[nH]c2ccc(-c3n[nH]c(=S)n3C)cc2c1C,98*,-3,-2,-21,-3,-41
CCn1c(-c2ccc3[nH]c(C)c(C)c3c2)n[nH]c1=S,98*,-1,-2,5,4,-2
C[C@@H]1CN([C@@H](C)CO)C(=O)c2cccc(NC(=O)Nc3ccc(C(F)(F)F)cc3)c2O[C@H]1CN(C)S(C)(=O)=O,.,.,.,9,.,.
C[c-]1[c-](C)[c-](C)[c-](C)[c-]1C.[Fe].c1cc2nccc(N3CCCC3)[c-]2c1 (stereo not given),94*,-1,29*!,11,1,10
CCOC(=O)c1c(N)sc(C(=O)N2CCOCC2)c1C,-2,-2,-1,-12,2,-1
C=CCn1c(N)c(C(=O)N2CCOCC2)sc1=S,99*,2,-2,.,1,25
CCn1c(N)c(C(=O)N2CCOCC2)sc1=S,98*,0,-3,-18,15,-26
C=CCn1c(N)c(C(=O)Nc2ccc(C)cc2)sc1=S,17,1,1,-18,6,0
CO[C@H]1CN(C)C(=O)c2cc(NS(=O)(=O)c3ccc(C)cc3)ccc2OC[C@@H](C)N(C)C[C@@H]1C,.,.,.,12,.,.
CCCC(=O)Nc1ccc2c(c1)OC[C@H](C)N(C(=O)c1ccncc1)C[C@@H](C)[C@@H](OC)CN(C)C2=O,.,.,.,4,.,.
O=C(Cc1ccncc1)NCC[C@@H]1CC[C@@H](NC(=O)C2CC2)[C@@H](CO)O1,.,.,.,-11,.,.
CCC1CCCCN1C(=O)CSc1nc(N)c(NC(=O)c2ccco2)c(=O)[nH]1 (stereo not given),85*,1,5,-10,8,23
COc1ccc(N2CCN(S(=O)(=O)CCNC(=O)COc3ccccc3OC)CC2)cc1,93*,1,2,14,-2,-2
C[C@@H]1CN([C@H](C)CO)C(=O)c2cc(NC(=O)Nc3ccc(F)cc3)ccc2O[C@@H]1CN(C)S(=O)(=O)c1ccc(Cl)cc1,.,.,.,-14,.,.
O=C1/C(=C/c2ccccc2)CCCc2ccccc21,-6,-1,3,.,-2,57*
O=C1/C(=C\c2cccnc2)CCc2ccccc21,-24,-1,0,-27,21,-3
O=C1/C(=C/c2cccnc2)CC/C1=C\c1cccnc1,3,-2,-1,-23,15,28
CCC1C/C(=C\c2cccnc2)C(=O)/C(=C/c2cccnc2)C1 (stereo not given),.,-2,.,.,11,76*
O=C1/C(=C/c2cccnc2)CCC/C1=C\c1cccnc1,-4,.,8,.,.,78*
COC(=O)C[C@@H]1CC[C@@H]2[C@H](COc3ccc(NC(=O)Nc4ccc(C#N)cc4)cc3C(=O)N2C)O1,.,.,.,-1,.,.
COc1ccc(/C=C2\C(=O)ON=C2c2ccccc2)cc1,98*,-1,5,-15,1,2
O=C1ON=C(c2ccccc2)/C1=C/c1ccc(OS(=O)(=O)c2ccccc2)cc1,8,-2,9,.,0,40

Bioassay records deposited in PubChem BioAssay by several laboratories.
